These are literature values, as cited in patent US20080070828A1, “Ace-Inhibitory Whey Hydrolysates” (FRIESLAND BRANDS B.V., priority 2004, published 2008).

Sequences of proteins named here, by UniProt entry; tags and fusion partners are left off. A change or cut given only in a name is not applied to a line headed by its entry.
UniProt P02754: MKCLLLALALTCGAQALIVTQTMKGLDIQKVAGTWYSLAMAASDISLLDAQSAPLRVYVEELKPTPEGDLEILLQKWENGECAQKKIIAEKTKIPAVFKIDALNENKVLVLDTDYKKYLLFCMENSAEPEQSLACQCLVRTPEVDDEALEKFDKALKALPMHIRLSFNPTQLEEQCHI

Usually IC50 stands for the concentration at which inhibition is half-maximal.

The series relates to ACE. To be noted: ACE-inhibitory peptides from BLG; for IC50: read-out: Literature IC50.

Regarding “f(104-105): ACE-inhibitory peptide from BLG (LF; UniProt P02754 120-121, looked up, fragment)”, the “Literature IC50” value was 97 µg/mL and the IC50 is 350 µM.
As to “f(102-103): ACE-inhibitory peptide from BLG (YL; UniProt P02754 118-119, looked up, fragment)”, the “Literature IC50” value is 86 µg/mL and the half-maximal inhibitory concentration (IC50) was 122 µM.
